# Data taken from paper PMC8556396 (2021).
# “And” between values parts separate entries of the source, which are not always exact repeats. Equal values may be shown once.
# System: RSV A2
# Assay: Immunofluorescence staining and microscopy of RSV F and N;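 also: fluorescence normalized to total nuclear count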
# [1] = Fig 5D, FTI-276 5 uM, perillyl alcohol 5 mM
smiles,measurement,setting,value
"CSCC[C@H](NC(=O)c1ccc(NC[C@@H](N)CS)cc1-c1ccccc1)C(=O)O.O=C(O)C(F)(F)F [FTI-276, FTI-276 trifluoroacetate salt]",RSV F intensity (a.u.),[1],4.494 a.u.
same,RSV N intensity (a.u.),"Fig 5E, FTI-276 0.5 uM, perillyl alcohol 0.5 mM",5.737 a.u.
O=c1cc(CN2CCOCC2)occ1OCCCCCSc1ccnc2cc(C(F)(F)F)ccc12 [EHT 1864],RSV N intensity (a.u.),"Fig 7C, EHT 1864 40 uM",1.109 a.u.
"C=C(C)[C@@H]1CC=C(CO)CC1 [Perillyl alcohol, perillyl alcohol]",RSV F intensity (a.u.),"Fig 5D, FTI-276 0.5 uM, perillyl alcohol 0.5 mM",5.739 a.u.
same,RSV F intensity (a.u.),"Fig 5D, FTI-276 1 uM, perillyl alcohol 1 mM",2.761 a.u. and 2.994 a.u.
same,RSV F intensity (a.u.),[1],1.113 a.u.
"CCC(C)(C)C(=O)O[C@H]1C[C@@H](C)C=C2C=C[C@H](C)[C@H](CC[C@@H]3C[C@@H](O)CC(=O)O3)[C@H]21 [Simvastatin, simvastatin]",RSV F intensity (a.u.),"Fig 5B, statin alone: atorvastatin 3.5 uM, simvastatin 1.5 uM",0.4508 a.u. and 0.3057 a.u. and 0.5713 a.u. and 0.59 a.u.
same,RSV N intensity (a.u.),"Fig 5C, statin alone: atorvastatin 3.5 uM, simvastatin 1.5 uM",0.3368 a.u. and 0.3462 a.u. and 0.2491 a.u. and 0.4368 a.u.
same,RSV F intensity (a.u.),"Fig 7B, atorvastatin 3.5 uM, simvastatin 1.5 uM, EHT 1864 20 uM, CN04 1 uM, CN04 1 uM + Ato 3.5 uM",0.2881 a.u. and 0.3736 a.u. and 0.3944 a.u. and 0.4969 a.u.
